Values quoted from earlier work in patent US9061077B2 (Emory University, priority 2008, dated 2015).
Like-named read-outs stand apart in the source and are kept apart here.

Tests used:
[1] = literature; cited from earlier work
[2] = mice (n=5), cited from earlier work

In the case of `O=C([O-])CN=C([O-])CN=C([O-])CN=C([O-])C[S-].[O-2].[Tc+4]` [^99mTc-MAG3, technetium-99m mercaptoacetyltriglycine], the “Clearance as percent of that of 131I-OIH” value [1] is given as 50-60%, the “Urine (99mTc/131I ratio), injected dose in urine as percentage of 131I-OIH” value ([2]; 10 min, published data) is given as 107 ± 0.3^ % and the “Urine (99mTc/131I ratio), injected dose in urine as percentage of 131I-OIH” value ([2]; row headed 60 min, footnote says 120 mins) is given as 103 ± 0.5^d %.
